Measurements as given in US20220144817A1 (Karuna Therapeutics, Inc., priority 2019, published 2022).

By UniProt entry, the sequences of proteins in these tests, tags left out. Where a name states a change or a piece, a line headed by the entry shows the natural chain unless it says otherwise.
UniProt P08172, whole entry: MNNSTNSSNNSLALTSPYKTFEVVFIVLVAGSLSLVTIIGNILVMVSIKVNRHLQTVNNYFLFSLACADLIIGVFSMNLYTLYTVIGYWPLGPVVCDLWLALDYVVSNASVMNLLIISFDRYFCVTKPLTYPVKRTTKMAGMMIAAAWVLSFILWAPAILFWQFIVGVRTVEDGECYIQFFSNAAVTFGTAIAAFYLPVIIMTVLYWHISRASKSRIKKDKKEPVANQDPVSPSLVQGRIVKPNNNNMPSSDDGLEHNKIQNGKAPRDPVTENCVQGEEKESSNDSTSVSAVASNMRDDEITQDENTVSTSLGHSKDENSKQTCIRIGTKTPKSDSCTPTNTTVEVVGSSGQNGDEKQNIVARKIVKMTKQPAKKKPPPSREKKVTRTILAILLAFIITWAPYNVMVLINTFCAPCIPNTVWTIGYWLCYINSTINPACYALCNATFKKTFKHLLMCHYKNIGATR
UniProt P11229: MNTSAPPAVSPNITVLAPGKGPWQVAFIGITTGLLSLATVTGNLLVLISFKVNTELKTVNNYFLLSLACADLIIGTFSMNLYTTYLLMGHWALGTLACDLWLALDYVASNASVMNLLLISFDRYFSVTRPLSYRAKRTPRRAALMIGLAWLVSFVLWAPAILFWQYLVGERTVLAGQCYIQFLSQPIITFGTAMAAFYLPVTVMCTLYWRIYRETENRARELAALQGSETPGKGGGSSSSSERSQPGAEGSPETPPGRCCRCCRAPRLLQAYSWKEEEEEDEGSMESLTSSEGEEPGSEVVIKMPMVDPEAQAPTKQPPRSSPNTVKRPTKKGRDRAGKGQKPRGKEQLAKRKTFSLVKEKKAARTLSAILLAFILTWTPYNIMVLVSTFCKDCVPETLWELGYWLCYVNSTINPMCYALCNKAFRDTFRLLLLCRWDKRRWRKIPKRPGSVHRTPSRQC

Legend:
[1] = target: T1, muscarinic acetylcholine receptor human M2 (hM2) (Homo sapiens, UniProt P08172); assay: pERK dose response in CHO cells stably expressing hM2; format: cell-based; settings: CHO cells expressing hM2, 5-minute incubation, normalized to maximum FBS response, n=3; read-out: pEC50 (pERK), M2 (converted)
T1 construct: expressed in transfected cells

[2] = target: muscarinic acetylcholine receptor human M1 (hM1) (Homo sapiens, UniProt P11229); settings: pERK; rank hM4>hM1
Source text: The Flp-In™ cell lines are designed for rapid generation of stable cell lines that express a protein of interest from a Flp-In™ expression vector.
Extracellular signal-related kinase (ERK1/2 or p42/44) is a kinase in the mitogen-activated protein kinase (MAPK) family. Phosphorylation of ERK (pERK) can be used as a common end point measurement for the activation of many classes of G protein coupled receptors (GPCR) and beta-arrestin linked signaling.
For the pERK assay, cells were serum starved for 5 to 6 hours. Curves were normalized to the maximum response from the fetal bovine serum (FBS) medium corresponding to a 5-minute stimulation. A 5-minute incubation with the agonists was selected for the dose response pERK assays (n=2).
Nonlinear regression curves were calculated per the three parameters method with no constraints.

In the case of [2H]C([2H])([2H])C([2H])([2H])C([2H])([2H])C([2H])([2H])C([2H])([2H])C([2H])([2H])Oc1nsnc1C1=CCCN(C)C1 [Xanomeline-d13, 3-((hexyl-1,1,2,2,3,3,4,4,5,5,6,6,6-d13)oxy)-4-(1-methyl-1,2,5,6-tetrahydropyridin-3-yl)-1,2,5-thiadiazole], the EC50 [1] is reported as 665 nM and the “agonist capacity at hM1” value [2] is reported as “efficacious partial agonist”.
For [2H]C([2H])([2H])N1CCC=C(c2nsnc2OC([2H])([2H])C([2H])([2H])C([2H])([2H])C([2H])([2H])C([2H])([2H])C([2H])([2H])[2H])C1 [Xanomeline-d16, 3-((hexyl-1,1,2,2,3,3,4,4,5,5,6,6,6-d13)oxy)-4-(1-(methyl-d3)-1,2,5,6-tetrahydropyridin-3-yl)-1,2,5-thiadiazole], the EC50 [1] was 735 nM and the “agonist capacity at hM1” value [2] was “efficacious partial agonist”.
